From ChEMBL document CHEMBL4052706, “Isolation, structure elucidation, and synthesis of antiplasmodial quinolones from Crinum firmifolium” (Bioorg Med Chem, 2017)

Test: Selectivity ratio of IC50 for human A2780 cells to IC50 for chloroquine/mefloquine-resistant Plasmodium falciparum Dd2

CCCCCCCc1cc(=O)c2ccccc2[nH]1
Ratio IC50: 26.6
